According to patent publication US20060079453A1, “Hla binding peptides and their uses” (priority 2002, published 2006):

Tests used:
Assay in all cases: biochemical
Assay type in all cases: binding
HLA-B*4403 = HLA-B*4403 (Homo sapiens, UniProt P01889, A223V/A65T/A93T/A95T/D201E/D98Y/E176V/E187L/E204Q/E69K/G107R/H137Y/K202T/L105A/L119I/N104T/N87E/Q56L/Q94N/R106L/R155S/R180L/S101N/S121R/S35A/S48T/T118I/V36M/W191S/Y140D/Y91S)
HLA-B*4402 = HLA-B*4402 (Homo sapiens, UniProt P01889, A223V/A65T/A93T/A95T/D201E/D98Y/E176V/E187L/E204Q/E69K/G107R/H137Y/K202T/L105A/L119I/N104T/N87E/Q56L/Q94N/R106L/R155S/R180D/S101N/S121R/S35A/S48T/T118I/V36M/W191S/Y140D/Y91S); settings: B*4402
HLA-B*4001 = HLA-B*4001 (Homo sapiens, UniProt P01889, A65T/A93T/A95T/D138N/D98Y/E176V/E69K/N87E/Q56L/Q94N/R180L/S121R/S35A/S48T/T167S/V36M/W171L/Y33H/Y91S); settings: B*4001
HLA-B*4002 = HLA-B*4002 (Homo sapiens, UniProt P01889, A65T/A93T/A95T/D138N/D201E/D98Y/E176V/E204Q/E69K/K202T/N87E/Q56L/Q94N/R180L/S48T/Y33H/Y91S); settings: B*4002
HLA-B*4501 = HLA-B*4501 (Homo sapiens, UniProt P01889, A329T/A65T/A93T/A95T/C349S/D138N/D201E/D98Y/E176V/E187L/E204Q/E69K/H137Y/K202T/L119W/N87E/Q56L/Q94N/R155S/R180D/S121R/S35A/S48T/V127L/V306I/V36M/W191S/Y140L/Y33H/Y91S); settings: B*4501
HLA-B*1801 = HLA-B*1801 (Homo sapiens, UniProt P01889, A329T/A93T/A95T/C349S/D201E/D54G/D98Y/E176V/E187T/E204Q/E69T/K202T/Q94N/R155S/R180L/S121R/V306I/Y140S/Y195H/Y33H/Y91S); settings: B*1801

CC(C)C[C@H](NC(=O)[C@H](CC(N)=O)NC(=O)[C@H](CCC(=O)O)NC(=O)[C@H](C)N)C(=O)N[C@@H](Cc1c[nH]c2ccccc12)C(=O)N[C@H](C(=O)N[C@@H](CO)C(=O)N[C@H](C(=O)N[C@@H](Cc1ccc(O)cc1)C(=O)O)C(C)C)C(C)C
IC50 (HLA-B*4403): 178 nM

CSCC[C@H](NC(=O)[C@@H](NC(=O)[C@H](Cc1ccc(O)cc1)NC(=O)[C@H](C)NC(=O)[C@H](CCC(=O)O)NC(=O)[C@@H](N)CC(=O)O)C(C)C)C(=O)N[C@@H](C)C(=O)NCC(=O)N[C@H](C(=O)NCC(=O)O)C(C)C
IC50 (HLA-B*4403; B*4403): 4100 nM

CC(C)C[C@H](NC(=O)CNC(=O)[C@H](CCC(=O)O)NC(=O)[C@@H](N)CCC(=O)O)C(=O)N[C@@H](CCC(=O)O)C(=O)N[C@@H](C)C(=O)N[C@@H](CCCNC(=N)N)C(=O)NCC(=O)N[C@@H](CCC(=O)O)C(=O)N[C@@H](C)C(=O)O
IC50 (HLA-B*4403; B*4403): 302 nM

CSCC[C@H](NC(=O)[C@H](CO)NC(=O)[C@H](CCC(=O)O)NC(=O)[C@@H](N)Cc1ccccc1)C(=O)N1CCC[C@H]1C(=O)N[C@@H](CC(N)=O)C(=O)N1CCC[C@H]1C(=O)N[C@@H](CCC(=O)O)C(=O)NCC(=O)O
IC50 (HLA-B*4402): 16500 nM
IC50 (HLA-B*4403; B*4403): 14 nM
IC50 (HLA-B*4001): 30200 nM

CC[C@H](C)[C@H](NC(=O)[C@H](C)NC(=O)[C@@H](NC(=O)[C@@H]1CCCN1C(=O)[C@@H](NC(=O)[C@H](CCCCN)NC(=O)[C@@H](NC(=O)[C@H](CC(N)=O)NC(=O)[C@H](CCC(=O)O)NC(=O)CN)C(C)C)[C@@H](C)CC)C(C)C)C(=O)O
IC50 (HLA-B*4403; B*4403): 6.7 nM
IC50 (HLA-B*4002): 28 nM

CC(C)C[C@H](NC(=O)[C@H](CCC(=O)O)NC(=O)[C@@H](NC(=O)[C@H](CCC(=O)O)NC(=O)[C@@H](N)CCCCN)[C@@H](C)O)C(=O)N[C@@H](CCCNC(=N)N)C(=O)N[C@@H](CCCCN)C(=O)N[C@H](C(=O)N[C@@H](CCCCN)C(=O)N[C@H](C(=O)O)C(C)C)C(C)C
IC50 (HLA-B*4403; B*4403): 4.5 nM

CC[C@H](C)[C@H](NC(=O)[C@H](C)NC(=O)[C@H](C)NC(=O)[C@H](CCC(N)=O)NC(=O)[C@H](Cc1ccccc1)NC(=O)[C@H](CCC(=O)O)NC(=O)[C@H](CO)NC(=O)[C@H](CCC(=O)O)NC(=O)[C@@H](N)CC(C)C)C(=O)N[C@@H](CO)C(=O)N[C@@H](CCCNC(=N)N)C(=O)N[C@@H](CCCCN)C(=O)N[C@@H](CCSC)C(=O)O
IC50 (HLA-B*4501): 22 nM
IC50 (HLA-B*1801): 49 nM
IC50 (HLA-B*4002): 72 nM
IC50 (HLA-B*4001): 310 nM

CC[C@H](C)[C@H](NC(=O)[C@H](CO)NC(=O)[C@H](CCC(=O)O)NC(=O)[C@@H](N)CC(C)C)C(=O)N[C@@H](CC(C)C)C(=O)N[C@@H](CCCNC(=N)N)C(=O)N[C@@H](CCCNC(=N)N)C(=O)N[C@@H](CCCNC(=N)N)C(=O)N[C@@H](Cc1ccccc1)C(=O)N[C@H](C(=O)O)[C@@H](C)O
IC50 (HLA-B*4403; B*4403): 87 nM
IC50 (HLA-B*4001): 28500 nM

CC(C)[C@H](NC(=O)[C@H](CS)NC(=O)[C@H](CO)NC(=O)[C@H](C)NC(=O)CNC(=O)[C@H](Cc1ccccc1)NC(=O)[C@@H](NC(=O)[C@H](Cc1ccc(O)cc1)NC(=O)[C@H](CCCNC(=N)N)NC(=O)CNC(=O)[C@H](CCC(=O)O)NC(=O)[C@@H]1CCCN1)[C@@H](C)O)C(=O)N[C@H](C(=O)O)[C@@H](C)O
IC50 (HLA-B*4402): 1420 nM
IC50 (HLA-B*4501): 673 nM
IC50 (HLA-B*1801): 5230 nM
IC50 (HLA-B*4002): 737 nM

CSCC[C@H](NC(=O)[C@H](CCC(=O)O)NC(=O)[C@H](C)NC(=O)[C@H](CCCCN)NC(=O)[C@@H](NC(=O)[C@@H](NC(=O)[C@@H]1CCCN1C(=O)[C@H](CCC(=O)O)NC(=O)[C@@H](N)CCCNC(=N)N)C(C)C)[C@@H](C)O)C(=O)N[C@@H](CC(C)C)C(=O)O
IC50 (HLA-B*4402): 84 nM
IC50 (HLA-B*4403; B*4403): 41 nM

CC(C)C[C@H](NC(=O)[C@H](CC(N)=O)NC(=O)[C@H](CCC(=O)O)NC(=O)[C@@H](N)C(C)C)C(=O)N[C@@H](Cc1c[nH]c2ccccc12)C(=O)N[C@H](C(=O)N[C@H](C(=O)N[C@H](C(=O)N[C@@H](Cc1ccc(O)cc1)C(=O)O)C(C)C)[C@@H](C)O)C(C)C
IC50 (HLA-B*4403): 4860 nM

Where two headings read alike, the source gives them in different places.
